How the values were obtained:
[1] = system: human immunodeficience virus (HIV); test: Virucidal activity, suspension test in vitro (MU 3.52431-08); format: cell-based
Source text: Virucidal activity of copper acrylate-propionate obtained as described in example 4 was investigated by analogy with examples 14-19.
Virucidal activity of zinc methacrylate-myristate obtained as described in example 11 was investigated by analogy with examples 14-19.

[2] = biocide 0.01 % in aqueous solution, exposure 30 min
[3] = biocide 0.01 %, exposure 60 min
[4] = biocide 0.05 %, exposure 30 min
[5] = biocide 0.05 %, exposure 60 min

| Structure (SMILES) | Degree of virus inhibition, lg TCID50 [1, 2] [lg TCID50] | Degree of virus inhibition, lg TCID50 [1, 3] [lg TCID50] | Degree of virus inhibition, lg TCID50 [1, 4] [lg TCID50] | Degree of virus inhibition, lg TCID50 [1, 5] [lg TCID50] | Degree of virus inhibition, lg TCID50 ([1]; biocide 0.1 %, exposure 30 min) [lg TCID50] | Degree of virus inhibition, lg TCID50 ([1]; biocide 0.1 %, exposure 60 min) [lg TCID50] | Degree of virus inhibition, lg TCID50 (influenza A virus) [lg TCID50] | Virucidal activity (criterion for disinfectants: inhibition not less than 4 lg TCID50) (influenza A virus) |
| --- | --- | --- | --- | --- | --- | --- | --- | --- |
| C=C(C)C(=O)[O-].CC(=O)[O-].[Zn+2] [Zinc methacrylate-acetate, zinc methacrylate-acetate, reference compound] | 0.0 | 0.0 | 0.0 | 0.0 | 1.0 | 2.5 | 0.0 | does not substantially exhibit virucidal activity |
| C=CC(=O)[O-].CCC(=O)[O-].[Cu+2] [Copper acrylate-propionate] | 0.0 | 1.0 | 3.0 | 3.5 | 4.0 | 5.0 | – | – |
| C=CC(=O)[O-].CCCCCC(=O)[O-].[Zn+2] [Zinc acrylate-capronate] | 0.0 | 0.0 | 2.0 | 3.5 | 4.5 | 5.0 | – | – |

From US9924715B2, “Zinc or copper (II) salt and use thereof as a biocide” (LABORATORIYA BIO ZET, LLC, priority 2014, dated 2018)
